ERp5 inh – blocks human ERp5 reductase activity on insulin. Q15084. ERp5 insulin aggregation, absorbance 650 nm, 90 min. inhibition, % at 9.99 µM. 0.05% of 350,000 active;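 active = mean replicate inhibition above about 25%, with every replicate also reaching it, limit read from the data, passing the limit was not always enough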
PDI inh – inhibitors of human protein disulfide isomerase; AID 588391; PDI insulin aggregation turbidity, A650, 90 min; P07237; 0.052% of 350,000 active; inhibition, % at 10 µM;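 active = mean inhibition across replicates of 30% or more, whatever share of single replicates reach that level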
ARNT-TACC3 inh – disruptors of human ARNT/TACC3 interaction; inhibition, % at 9.99 µM; 0.66% of 390,000 active; AlphaScreen His-ARNT PAS-B/GST-TACC3 binding, luminescence; TACC3 fragment carries E629A point mutation; Q9Y6A5;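 active = mean inhibition of replicates at least 50% and at least half of replicates each reaching 50%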;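 also: 0% = complete ARNT plus TACC3 wells and 100% = ARNT alone without TACC3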
Yeast UUG start – alters start codon recognition fidelity in yeast; AID 602363; activity score, % at 18.7 µM; 350,000 tested, 0.13% active; S. cerevisiae UUG-firefly luciferase reporter, luminescence/redox ratio;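 active means replicate mean at a twofold rise or more, about +100% in these data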;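 further: firefly luciferase made from a UUG start codon reports start codon fidelity; reporter light over untreated wells divided by growth signal over untreated wells; some hits fall short of that in this replicate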
FGF22 binding – binders of recombinant human FGF22 by thermal shift | activity (Tm shift, normalised), % at 9.99 µM | 1.5% of 340,000 active | SYPRO orange fluorescence; percent of sucrose octasulfate shift, DMSO zero;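 active = mean Tm shift, scaled 0 neutral to 100 positive control, at about 1.3% or above, every replicate too, limit read from the data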
PglD inh – PglD (C. jejuni) enzyme inhibition; purified PglD enzyme, DTNB colorimetric CoA detection; inhibition, % at 12.5 µM; 0.098% of 360,000 active; AID 602405; in the data active = inhibition above about 16%, passing the limit was not always enough
Active calls of the source: *; · = no result given. Hits are enriched below; roughly 1.9% of the tested compounds scored in any of these assays.

Key to letters: A = ERp5 inh; B = PDI inh; C = ARNT-TACC3 inh; D = Yeast UUG start; E = FGF22 binding; F = PglD inh
(1) CC(C)C(C(=O)Nc1ncn[nH]1)N1C(=O)c2ccccc2C1=O (stereo not given)
  A: · | B: -11.7 | C: 35.5* | D: 4.6 | E: · | F: 3.7
(2) CC(C)C(C(=O)Nc1ccccc1)N1C(=O)c2ccccc2C1=O (stereo not given)
  A: 0.0 | B: -5.6 | C: 9.1 | D: -13.6 | E: -0.1 | F: -0.5
(3) Cc1ccccc1NC(=O)CCC(=O)N/N=C/c1cccnc1
  A: -0.2 | B: -2.4 | C: -4.3 | D: -8.6 | E: 0.3 | F: -2.4
(4) COc1ccccc1NC(=O)/C=C/c1ccc2c(c1)OCO2
  A: -3.5 | B: -2.4 | C: 6.3 | D: · | E: 0.1 | F: ·
(5) Cc1ccc(C)c(NC(=O)CCC(=O)N/N=C/c2ccc3c(c2)OCO3)c1
  A: 0.6 | B: 0.7 | C: -3.2 | D: · | E: 43.4* | F: ·
(6) Cc1ccccc1NCC(=O)N/N=C\c1ccc2c(c1)OCO2
  A: 4.2 | B: 28.8 | C: 11.3 | D: · | E: 44.0* | F: ·
(7) Cc1ccccc1NC(=O)CCC(=O)N/N=C/c1ccc(F)cc1
  A: -0.2 | B: -9.0 | C: -2.9 | D: · | E: 43.0* | F: ·
(8) CCOc1ccc(NC(=O)CCC(=O)N/N=C/c2ccc3c(c2)OCO3)cc1
  A: -3.8 | B: 5.6 | C: · | D: · | E: -0.1 | F: ·
(9) Cc1ccc(S(N)(=O)=O)cc1NC(=O)/C=C/c1ccc2c(c1)OCO2
  A: -1.2 | B: -5.8 | C: 4.1 | D: · | E: 43.5* | F: ·
(10) Cc1cccc(C)c1OCC(=O)N/N=C/c1ccc2c(c1)OCO2
  A: · | B: -11.0 | C: 0.8 | D: -8.3 | E: · | F: -4.7
(11) CCNC(=O)C[C@H]1C=C[C@@H](NC(=O)C2CCC2)[C@@H](CO)O1
  A: -2.8 | B: · | C: · | D: 17.3 | E: -0.3 | F: 2.7
(12) O=C(C[C@H]1C[C@@H]2c3cc(NC(=O)C4CCOCC4)ccc3O[C@@H]2[C@H](CO)O1)NCc1ccccc1
  A: 2.3 | B: · | C: 3.1 | D: -7.4 | E: -0.2 | F: -3.4
(13) COc1ccccc1-c1cnc2c(c1)C(=O)N([C@@H](C)CO)C[C@@H](C)[C@@H](CN(C)C(=O)c1ccccc1)O2
  A: · | B: · | C: 22.1 | D: -0.9 | E: -0.3 | F: 3.9
(14) COc1ccc(S(=O)(=O)N(C)C[C@H]2Oc3ccc(NC(=O)CCCN(C)C)cc3C(=O)N([C@@H](C)CO)C[C@@H]2C)cc1
  A: 2.8 | B: · | C: -12.6 | D: 7.8 | E: -0.2 | F: -9.8
(15) Cc1ccc(NC(=O)c2cccc(S(C)(=O)=O)c2)cc1
  A: 25.5* | B: 6.5 | C: -6.0 | D: · | E: 42.7 | F: ·

The final 2 entries of the part above are carried over, then new ones follow:
Key to letters: A = ERp5 inh; B = PDI inh; C = ARNT-TACC3 inh; D = Yeast UUG start; E = FGF22 binding; F = PglD inh
(14) COc1ccc(S(=O)(=O)N(C)C[C@H]2Oc3ccc(NC(=O)CCCN(C)C)cc3C(=O)N([C@@H](C)CO)C[C@@H]2C)cc1
  A: 2.8 | B: · | C: -12.6 | D: 7.8 | E: -0.2 | F: -9.8
(15) Cc1ccc(NC(=O)c2cccc(S(C)(=O)=O)c2)cc1
  A: 25.5* | B: 6.5 | C: -6.0 | D: · | E: 42.7 | F: ·
(16) O=C(Nc1ccc(Nc2ccccc2)cc1)c1ccc(Cl)cc1
  A: 0.0 | B: -4.9 | C: -0.9 | D: -7.0 | E: 0.1 | F: -1.3
(17) Cc1cccc(NC(=O)c2cccc(C(=O)Nc3cccc(C)c3)c2)c1
  A: -1.1 | B: 4.0 | C: -9.4 | D: -7.1 | E: 2.0* | F: -1.3
(18) Cc1cccc(C(=O)Nc2cccc(NC(=O)c3ccccc3)c2)c1
  A: 0.8 | B: 11.1 | C: -4.9 | D: -0.4 | E: -0.1 | F: -4.8
(19) Cc1cccc(C(=O)Nc2ccc(NC(=O)c3ccccc3)cc2)c1
  A: 2.9 | B: 15.0 | C: 3.4 | D: -1.8 | E: 0.0 | F: 0.3
(20) Cc1cccc(NC2=C(NC(=O)c3ccccc3)C(=O)c3ccccc3C2=O)c1
  A: · | B: -11.7 | C: 39.2* | D: -20.7 | E: · | F: -1.1
(21) O=C(NC1=C(Nc2ccc(Cl)cc2)C(=O)c2ccccc2C1=O)c1ccccc1
  A: 3.5 | B: 9.6 | C: 51.3* | D: · | E: -0.3 | F: ·
(22) COCCNC(=O)[C@H]1[C@H](CO)[C@H]2Cn3c(ccc(C4=CCCCC4)c3=O)[C@@H]1N2C(=O)C1CC1
  A: -5.9 | B: · | C: 3.1 | D: 6.4 | E: · | F: 0.3
(23) O=C(C[C@@H]1C[C@H]2c3cc(NC(=O)Nc4ccccc4)ccc3O[C@H]2[C@H](CO)O1)NCc1ccccn1
  A: 7.2 | B: · | C: -5.6 | D: -0.1 | E: · | F: -2.5
(24) C[C@H](CO)N1C[C@H](C)[C@@H](CN(C)S(=O)(=O)c2ccc(Cl)cc2)Oc2ccc(NS(=O)(=O)c3ccc(Cl)cc3)cc2CC1=O
  A: 3.7 | B: · | C: 14.5 | D: -2.8 | E: -0.4 | F: 3.9
(25) NC(=O)c1ccc(NC(=O)COc2ccc([N+](=O)[O-])cc2Cl)cc1
  A: 1.8 | B: -8.4 | C: -4.0 | D: · | E: 43.3* | F: ·
(26) CC(C)NC(=O)Nc1ccc2c(c1)C(=O)N([C@H](C)CO)C[C@@H](C)[C@H](CN(C)S(=O)(=O)c1cn(C)cn1)O2
  A: 9.1 | B: · | C: -4.1 | D: -1.9 | E: 0.0 | F: 0.5
(27) Cn1ncc2c(=O)n(/N=C/c3ccccc3)cnc21
  A: 2.6 | B: -12.3 | C: -4.6 | D: · | E: 43.7* | F: ·
(28) O=C(/C=C/c1cccc([N+](=O)[O-])c1)Nc1cccc(NC(=O)c2cccs2)c1
  A: 4.8 | B: -1.5 | C: 0.1 | D: -10.2 | E: 1.7* | F: -1.0
(29) O=C(/C=C/c1cccc([N+](=O)[O-])c1)Nc1cccc(NC(=O)c2ccco2)c1
  A: -2.8 | B: -8.1 | C: 24.8 | D: · | E: -0.1 | F: ·
(30) O=C(/C=C/c1ccc(Cl)c([N+](=O)[O-])c1)Nc1cccc(NC(=O)c2ccco2)c1
  A: -4.0 | B: 16.0 | C: 4.7 | D: · | E: 44.9* | F: ·

Screens: PubChem, Broad Institute
